Several values for one entry are separate records, joined by “and”; a condition that tells them apart may be missing. Equal values may be shown once. This is a selection; strong and weak results do not stand in their true shares. Records with an inconclusive call do not appear. Activity calls are given as the source filed them.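 Rule for the calls: active = inhibitors giving a complete concentration-response curve with high efficacy; inconclusive = inhibitors giving only a partial curve with partial efficacy; inactive = the rest.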
Molecular target: Lysosomal acid glucosylceramidase (Homo sapiens) (UniProt P04062)
Test: Confirmation Concentration-Response Assay for Glucocerebrosidase Inhibitors
Settings: purified GBA, resorufin glucoside fluorescence, 20 min
Source text: NCGC Assay Overview: NIH Molecular Libraries Screening Centers Network [MLSCN] NIH Chemical Genomics Center [NCGC] MLSCN Grant: XO1-MH078932-01 Beta-glucocerebrosidase catalyzes the hydrolysis of beta-glucocerebroside to glucose and ceramide. The inherited deficiency of beta-glucocerebrosidase results in Gaucher disease, which is characterized by a wide variety of symptoms including hepatosplenomegaly, anemia, thrombocytopenia, bony lesions and bone marrow infiltration with characteristic storage cells, known as Gaucher cells. There are also forms of the disorder affecting the central nervous system. Patients with the same genotypes can manifest with diverse clinical presentations and it is believed that improper folding and trafficking of beta-glucocerbrosidase may contribute to the phenotypes observed. Low molecular weight molecules, acting as chaperones, may potentially restore trafficking of misfolded beta-glucocerebrosidase from the endoplasmic reticulum to the lysosomes, thereby enhancing functional lysosomal beta-glucocerebrosidase activity. Using normal beta-glucocerebrosidase, an assay was developed to screen for small molecule inhibitors that could potentially act as molecular chaperones on the mutant forms [developed with NIH investigator Dr. Ellen Sidransky's laboratory]. A pro-fluorescent substrate was chosen for a screen against a small molecule library. The beta-glucocerebrosidase assay used Resorufin beta-D-Glucopyranoside (Marker Gene Technology Inc.), generating a red fluorescent product. The Km for the Resorufin beta-D-Glucopyranoside was determined to be 71.2 uM. […]
NCGC Assay Protocol Summary: Both enzyme and substrate were diluted in buffer composed of 50mM citric acid/KH2PO4, 10mM sodium taurocholate and 0.01% tween-20 at pH 5.9. […] This particular assay protocol was performed in 1536-well plate format as follows: Red fluorescence substrate assay: 2 uL enzyme 23 nL compound 1 uL substrate (final concentration of 30 uM) Incubate at room temperature (RT) for 20 minutes Read the plate in Viewlux plate reader (Ex=548(7) and Em=600(10)).

Sequences of proteins named here, by UniProt entry; tags and fusion partners are left off. A change or cut given only in a name is not applied to a line headed by its entry.
UniProt P04062: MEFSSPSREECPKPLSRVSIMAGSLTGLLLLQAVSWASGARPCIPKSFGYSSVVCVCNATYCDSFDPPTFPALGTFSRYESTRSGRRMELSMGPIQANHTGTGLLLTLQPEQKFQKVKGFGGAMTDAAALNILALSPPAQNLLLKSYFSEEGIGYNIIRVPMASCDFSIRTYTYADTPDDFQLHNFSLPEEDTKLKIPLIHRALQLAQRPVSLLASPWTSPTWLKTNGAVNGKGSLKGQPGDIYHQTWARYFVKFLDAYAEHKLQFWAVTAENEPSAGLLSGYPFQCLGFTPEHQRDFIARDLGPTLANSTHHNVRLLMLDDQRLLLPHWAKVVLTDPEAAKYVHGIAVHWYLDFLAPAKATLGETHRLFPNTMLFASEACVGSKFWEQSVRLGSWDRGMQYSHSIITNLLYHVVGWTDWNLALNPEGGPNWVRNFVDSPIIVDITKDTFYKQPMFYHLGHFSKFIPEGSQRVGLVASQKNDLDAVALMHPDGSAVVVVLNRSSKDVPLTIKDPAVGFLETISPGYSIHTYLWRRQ

| Compound | Potency |
| --- | --- |
| CCc1nnc(NC(=O)c2ccc(NS(=O)(=O)c3ccccc3)cc2)s1 | active: 74.5 nM and active: 153 nM |
| COc1ccc(Cl)cc1Nc1nc(NCCO)nc(N2CCCC2)n1 | active: 682 nM and active: 554 nM |
| Cc1cc(N2CCOCC2)nc2ccc(NC(=O)C3CCCCC3)cc12 | active: 41.6 nM and active: 38.8 nM |
